Each block holds one substance with its values, some of them ahead of it.
Key:
[1] = target: human IL-17A (human) (UniProt Q16552)
[2] = target: human TNFα (human) (UniProt P01375)
[3] = target: human TNFα (human) (UniProt P01375); remark: listed apart in the source
[4] = target: human IL-17A (human) (UniProt Q16552); remark: listed apart in the source
[5] = target: monkey IL-17A (monkey); test: ELISA, plate-coated antigen 1 µg/mL, anti-human IgG-HRP
[6] = target: monkey TNFα (monkey) (UniProt P79337); test: as above
[7] = target: human TNFα (human) (UniProt P01375); remark: listed apart in the source
[8] = target: transmembrane TNFα on Jurkat/tmTNFα cells; test: cell-based or functional assay
[9] = target: human IL-17A (human) (UniProt Q16552); test: SPR, Biacore X100, antibody captured on Protein A chip, human IL-17A as analyte
[10] = target: human IL-17A (human) (UniProt Q16552); test: ELISA, plate-coated antigen 1 µg/mL, anti-human IgG-HRP
[11] = target: human TNFα (human) (UniProt P01375); test: as above
[12] = target: human TNFα (human) (UniProt P01375); test: blocking ELISA: human TNFα coated, antibody titrated, blocked ligand biotin-labeled TNFR2-Fc, streptavidin-HRP, OD450; no IL-17A added
[13] = target: human TNFα (human) (UniProt P01375); test: blocking ELISA: human TNFα coated, antibody titrated, blocked ligand biotin-labeled TNFR2-Fc, streptavidin-HRP, OD450; human IL-17A added
[14] = target: human TNFα (human) (UniProt P01375); test: SPR, Biacore X100, antibody captured on Protein A chip, human TNFα as analyte

EC50 of inhibition of IL-6 secretion (OD450) of HFF-1 cells stimulated with TNFα and IL-17A together; one value for the joint neutralisation of both cytokines [1]: 0.131 nM | EC50 of inhibition of IL-6 secretion (OD450) of HFF-1 cells stimulated with TNFα and IL-17A together; one value for the joint neutralisation of both cytokines [2]: 0.131 nM | EC50 of inhibition of TNFα-induced IL-6 secretion of HFF-1 cells [3]: 0.43 nM | EC50 of inhibition of IL-17A-induced IL-6 secretion of HFF-1 cells [4]: 0.479 nM | EC50 [5]: 0.033 nM | EC50 [6]: 0.034 nM | Apoptosis ratio (%) of Jurkat/tmTNFα cells, BH1657 1 µg/mL [8]: 18.5% | Apoptosis ratio (%) of Jurkat/tmTNFα cells, BH1657 2 µg/mL [8]: 18.6% | Apoptosis ratio (%) of Jurkat/tmTNFα cells, BH1657 10 µg/mL [8]: 17.6% | Apoptosis ratio (%) of Jurkat/tmTNFα cells, BH1657 20 µg/mL [8]: 17.8%
Substance: anti-human TNFα/anti-human IL-17A heterodimeric antibody BH1657 (bispecific antibody)
EC50 of protection of L-929 cells from human TNFα (viability, MTS, OD490); IL-17A added [7]: 0.347 nM | EC50 of protection of L-929 cells from human TNFα (viability, MTS, OD490); no IL-17A added [7]: 1.14 nM

Kd [9]: 0.0116 nM | koff [9]: 6.81e-05 s⁻¹ | kon [9]: 5.87e+06 M⁻¹ s⁻¹ | EC50 [10]: 0.03 nM | EC50 [11]: 0.042 nM | EC50 [12]: 21.1 nM | EC50 [13]: 12.2 nM | Kd [14]: 0.0203 nM | koff [14]: 4.98e-05 s⁻¹ | kon [14]: 2.45e+06 M⁻¹ s⁻¹
Substance: anti-human TNFα/anti-human IL-17A heterodimeric antibody BH1657 (bispecific antibody; other documents disagree on this pair)

— patent US20220010006A1 (BEIJING HANMI PHARMACEUTICAL, published 2022)
